Measured values: PubChem BioAssay AID651999 (Sanford-Burnham Center for Chemical Genomics, 2013)
The list shows a part of the results, in another mix than the full data. Active and inactive are the calls of the source.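 The calls were made as follows: active = pattern-corrected inhibition above about 35%, with an unprinted fluorescence ratio check between 0.5 and 1.5 (limit read from the data, passing the limit was not always enough); inactive = the rest.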

Chains of the proteins cited; added tags and fusions are not shown.
UniProt Q92905, whole entry: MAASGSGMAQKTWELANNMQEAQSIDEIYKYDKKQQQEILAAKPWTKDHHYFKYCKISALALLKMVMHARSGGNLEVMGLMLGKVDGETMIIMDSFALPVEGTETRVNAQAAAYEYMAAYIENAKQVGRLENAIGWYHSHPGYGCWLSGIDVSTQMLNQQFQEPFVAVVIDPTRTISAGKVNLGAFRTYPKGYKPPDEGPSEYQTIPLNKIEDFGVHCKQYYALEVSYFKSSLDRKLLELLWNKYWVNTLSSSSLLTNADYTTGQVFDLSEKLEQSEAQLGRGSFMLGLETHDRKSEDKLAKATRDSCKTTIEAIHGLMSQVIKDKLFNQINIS

These compounds were tested against COP9 signalosome complex subunit 5 (Homo sapiens) (UniProt Q92905) (assay: CSN5 deneddylase inhibitors on cullin-RING ligase – biochemical, fluorescence polarization, uHTS, primary screen (AID 651999;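 also: 0% = enzyme with substrate and 100% = substrate without enzyme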)). Conditions: Purified CSN, SCF-Nedd8-OG deneddylation, at 12.5 µM, hits give high values.
Outline: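 Assay system: purified human Csn5 enzyme expressed in HEK293T cells; measure: % inhibition; also added: SCFSkp2-Nedd8OG substrate at 10 nM final; technique: fluorescence polarization; times: reaction 90 min, room temperature; medium: Tris buffer pH 7.5, NaCl, DTT, Tween-20, trehalose, ovalbumin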

Row | Structure (SMILES) | inhibition
1 | COc1cc(C(=O)NCC2(N3CCCCC3)CCCCC2)ccc1OC(F)F | inactive: 1.6%
2 | O=C(NCC1(N2CCOCC2)CCCCC1)c1cc(=O)[nH]c2ccccc12 | inactive: 5.86%
3 | CN1CCN(CCOC(=O)C(O)(c2ccccc2)c2ccccc2)CC1 | inactive: -9.7%
4 | CC(C)c1ccc(C(=O)NCC2(N3CCOCC3)CCCCC2)cc1 | inactive: 2.36%
5 | COc1ccc(NC2CCN(C(=O)OC(C)(C)C)CC2)cc1 | inactive: 8.79%
6 | CCCCn1nnnc1C(c1cccc2ccccc12)N1CCC(n2c(=O)[nH]c3ccccc32)CC1 (stereo not given) | inactive: 1.04%
7 | O=C(NCC1(N2CCCCC2)CCCCC1)c1cccc(C(F)(F)F)c1 | inactive: -0.01%
8 | CCN1CCC(Nc2ccc(Cl)cc2)CC1 | inactive: 1.12%
9 | O=c1[nH]c2ccccc2n1C1CCN(C(c2ccccc2OC(F)(F)F)c2nnnn2C2CCCC2)CC1 (stereo not given) | inactive: -6.01%
10 | N#CC1(Nc2ccccc2)CCN(CCc2ccccc2)CC1 | inactive: 1.21%
11 | O=C(NCC1(N2CCCCC2)CCCCC1)c1cccc([N+](=O)[O-])c1 | inactive: 4.8%
12 | CSc1ccc(C(=O)NCC2(N3CCOCC3)CCCCC2)cc1 | inactive: 0.73%
13 | CC(C)(C)n1nnnc1C(c1ccccc1OC(F)(F)F)N1CCC(n2c(=O)[nH]c3ccccc32)CC1 (stereo not given) | inactive: -3.27%
14 | O=C(NCC1(N2CCCCC2)CCCCC1)c1ccc(OC(F)F)cc1 | inactive: -2.92%
15 | COc1ccc(C(c2nnnn2C2CCCC2)N2CCC(n3c(=O)[nH]c4ccccc43)CC2)cc1 (stereo not given) | inactive: 3.7%
16 | Cc1ccc(C(=O)NCC2(N(C)C)CCCCC2)o1 | inactive: -2.81%
17 | CCCOc1ccc(C(=O)NCC2(N(C)C)CCCCC2)cc1OC | inactive: 0.56%
18 | CN1CCC(Nc2cccc(F)c2)CC1 | inactive: -2.85%
19 | O=C(NCC1(N2CCCCC2)CCCCC1)c1cncc(Br)c1 | inactive: -2.66%
20 | COc1cc(OC)c(C(=O)NCC2(N(C)C)CCCCC2)cc1OC | inactive: 0.74%

Row | Structure (SMILES) | inhibition
21 | O=C(NCC1(N2CCOCC2)CCCCC1)c1cc(F)c(F)cc1Cl | inactive: -4%
22 | CCC(c1nnnn1C(C)(C)C)N1CCC(n2c(=O)[nH]c3ccccc32)CC1 (stereo not given) | inactive: -0.81%
23 | CCCCn1nnnc1C(c1ccnc2ccccc12)N1CCC(n2c(=O)[nH]c3ccccc32)CC1 (stereo not given) | inactive: -5.43%
24 | CCCCn1nnnc1C(c1ccccc1OC(F)(F)F)N1CCC(n2c(=O)[nH]c3ccccc32)CC1 (stereo not given) | inactive: -1.87%
25 | CC(C)c1ccc(NC2CCN(C(=O)OC(C)(C)C)CC2)cc1 | inactive: -3.33%
26 | COc1ccc(CN(CCCl)CCCl)cc1Cl | inactive: -4.82%
27 | CN(C)c1cccc(C(=O)NCC2(N3CCCCC3)CCCCC2)c1 | inactive: 3.28%
28 | O=C(NCC1(N2CCCCC2)CCCCC1)c1ccc(Cl)s1 | inactive: 3.9%
29 | N#CC1(Nc2ccccc2)CCN(Cc2ccccc2)CC1 | inactive: 2.06%
30 | O=C(OC1CN2CCC1CC2)C1c2ccccc2Oc2ccccc21 (stereo not given) | inactive: -7.31%
31 | O=c1[nH]c2ccccc2n1C1CCN(C(c2cc3ccccc3o2)c2nnnn2C2CCCCC2)CC1 (stereo not given) | inactive: 2.88%
32 | COc1ccc(Cl)cc1C(=O)NCC1(N2CCOCC2)CCCCC1 | inactive: -5.2%
33 | CCOC(=O)N1CCC(Nc2ccc(OC)cc2)CC1 | inactive: -0.72%
34 | CCCCn1nnnc1C(c1ccc(OC)cc1)N1CCC(n2c(=O)[nH]c3ccccc32)CC1 (stereo not given) | inactive: -2.7%
35 | O=C(NCC1(N2CCCCC2)CCCCC1)c1ccc(Cl)nc1 | inactive: 1.62%
36 | O=c1[nH]c2ccccc2n1C1CCN(C(c2ccccc2OC(F)(F)F)c2nnnn2C2CCCCC2)CC1 (stereo not given) | inactive: 0.64%
37 | Cc1cc(C)cc(N(C(=O)c2ccccc2)C2CCN(C(=O)OC(C)(C)C)CC2)c1 | inactive: 1.13%
38 | O=C(NCC1(N2CCOCC2)CCCCC1)c1cc2ccccc2o1 | inactive: 3.82%
39 | CSc1ccccc1C(=O)NCC1(N2CCCCC2)CCCCC1 | inactive: 4.42%
40 | Cc1cccc(NC2(C#N)CCN(Cc3ccccc3)CC2)c1 | inactive: -4.27%

Row | Structure (SMILES) | inhibition
41 | COc1ccc(C(=O)NCC2(N3CCCCC3)CCCCC2)cc1 | inactive: 4.14%
42 | CC(C)(C)OC(=O)N1CCC(N(C(=O)c2ccccc2)c2ccc(F)cc2)CC1 | inactive: 8.64%
43 | COc1ccc(C(=O)NCC2(N3CCCCC3)CCCCC2)c(OC)c1OC | inactive: 4.1%
44 | CCC(c1nnnn1C1CCCC1)N1CCC(n2c(=O)[nH]c3ccccc32)CC1 (stereo not given) | inactive: -0.77%
45 | O=C(NCC1(N2CCCCC2)CCCCC1)c1ccc(=O)[nH]c1 | inactive: 3.91%
46 | O=C(NCC1(N2CCCCC2)CCCCC1)c1cccs1 | inactive: 5.46%
47 | CCCCn1nnnc1C(CC)N1CCC(n2c(=O)[nH]c3ccccc32)CC1 (stereo not given) | inactive: 4.62%
48 | CCCCn1nnnc1C(c1cccs1)N1CCC(n2c(=O)[nH]c3ccccc32)CC1 (stereo not given) | inactive: 12.5%
49 | CCOC(=O)N1CCC(Nc2cccc(C)c2)CC1 | inactive: 1.53%
50 | COc1cc(C(=O)NCC2(N(C)C)CCCCC2)ccc1OC(F)F | inactive: 0.44%
51 | O=c1[nH]c2ccccc2n1C1CCN(C(c2cccc3ccccc23)c2nnnn2C2CCCC2)CC1 (stereo not given) | active: 133%
52 | O=c1[nH]c2ccccc2n1C1CCN(C(c2ccccc2)c2nnnn2C2CCCCC2)CC1 (stereo not given) | inactive: -2.19%
53 | CCCCn1nnnc1C(c1cc2ccccc2o1)N1CCC(n2c(=O)[nH]c3ccccc32)CC1 (stereo not given) | inactive: 1.18%
54 | O=P1(N(CCCl)CCCl)SCCCS1 | inactive: -2.18%
55 | CCCCOc1ccc(C(=O)NCC2(N3CCOCC3)CCCCC2)cc1 | inactive: 0.02%
56 | O=C(NCC1(N2CCCCC2)CCCCC1)c1ccc(F)cc1 | inactive: 1.51%
57 | COc1ccc(NC2CCN(CCc3ccccc3)CC2)c(OC)c1 | inactive: -1.42%
58 | CCOC(=O)N1CCC(Nc2ccc(F)cc2)CC1 | inactive: -4.04%
59 | CC(C)(C)n1nnnc1C(c1ccccc1)N1CCC(n2c(=O)[nH]c3ccccc32)CC1 (stereo not given) | inactive: -2.98%
60 | O=C1CCN(Cc2ccccc2)CC1 | inactive: 5.01%
